The values below are quoted from earlier work in patent US20220025053A1, “Methods of Inhibiting Metastasis in Cancer” (Wisconsin Alumni Research Foundation, priority 2018, published 2022).

The conditions of this data set: in vivo; cited from earlier work.

For Maraviroc, the Side effects reported entry is “effects that have been reported include liver problems and skin”.
